Shown are actives, neighbours in structure and some others; about 1.3% of the full set was active somewhere.
ERAP1 inh = blocks human ERAP1 aminopeptidase activity; recombinant ERAP1, Leu-AMC fluorescence, 60 min; inhibition, % at 10.7 µM; actives 0.15% (n = 340,000); AID 652197;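 active means mean replicate inhibition of at least 30%, or all replicates individually reaching that 30% level; inactive means mean below 30% and not every replicate reaching it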;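 further: 0% = neutral control wells and 100% = L-leucinethiol positive control wells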
UUG fidelity = modulators of yeast start codon fidelity, primary screen, whole organism, S. cerevisiae, single point, plate reader | AID 602363, 2012 | actives 0.13% (n = 350,000) | activity score, % at 18.7 µM | S. cerevisiae UUG-firefly luciferase reporter, luminescence/redox ratio;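 active means replicate mean at a twofold rise or more, about +100% in these data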;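 further: firefly luciferase made from a UUG start codon reports start codon fidelity; reporter light over untreated wells divided by growth signal over untreated wells; some hits fall short of that in this replicate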
AF4-AF9 inh = MLL-AF4/AF9 protein interaction inhibition; P42568; actives 0.47% (n = 350,000); inhibition, % at 10 µM; AlphaScreen, biotin-AF4 peptide binding to FLAG-AF9;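 active means every replicate reaching a set inhibition limit, whatever the replicate mean, cut at about 25% in these data; inconclusive means mean inhibition reaches that limit but some replicates miss it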;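 further: 0% = plate neutral control median and 100% = total signal loss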
S100A4 inh HTS = S100A4-myosin IIA interaction inhibition | inhibition, % at 10.7 µM | AID 652163 | actives 0.14% (n = 360,000) | P26447 | S100A4/TAMRA-MyoIIA peptide fluorescence polarization;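 active means mean inhibition of at least 70% across replicates, with every replicate also reaching that level; inconclusive means mean inhibition reaches 70% but some replicates fall short; inactive means mean inhibition below 70%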
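Test system – S100A4 monomer (human) · Compound – single-point compound testing · Schedule – 5 min incubation before reading · Probe or stimulus – TAMRA-labelled myosin IIA heavy-chain peptide probe, 5 nM · Benchmarks – neutral control DMSO, positive control TFP · Medium – Calcium-containing HEPES buffer, pH 7.2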
E-selectin induc = induces E-selectin expression in human endothelial cells; P16581; HUVEC E-selectin immunofluorescence imaging; normalized: neutral wells 0, TNF-alpha wells 100; activation, % at 7.58 µM; actives 0.37% (n = 260,000); AID 686992;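 active means mean E-selectin-positive cell signal at least 10% of the positive control, reached in at least 60% of replicates, without over 20% cell loss; inconclusive means no rule given, readout overlaps actives, possibly toxicity-flagged; inactive means the rest, including those meeting only one limit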
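Test system: HUVEC | Signal: Immunofluorescence imaging | Read-out: Percent E-selectin-positive cells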
ARNT TACC3 PPI = disrupts binding between human ARNT and TACC3; AlphaScreen His-ARNT PAS-B/GST-TACC3 binding, luminescence; TACC3 fragment carries E629A point mutation; inhibition, % at 9.99 µM; actives 0.66% (n = 390,000); AID 623870;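 active means mean inhibition of replicates at least 50% and at least half of replicates each reaching 50%; inconclusive means half or more replicates reach 50% but mean below 50%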;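 further: 0% = complete ARNT plus TACC3 wells and 100% = ARNT alone without TACC3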
ARNT Alpha ctr-1 = AlphaScreen artifact in ARNT/TACC3 counter-screen; AC50, µM (series often up to 68 µM), without a hit: at the top dose activity change, negative = signal decrease; His-ARNT PASB-GST AlphaScreen artifact counter-screen, luminescence; actives 50% (n = 1,200); shares compounds with ARNT TACC3 PPI; AID 651705;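 active means every separate test run was called active for a drop in luminescence, with AC50 within twice the top valid dose, actives reach about 71 µM in these data; inconclusive means the separate test runs disagree in their calls; inactive means all runs inactive, including signal change in the wrong direction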
ARNT Alpha ctr-2 = counter-screen for ARNT-TACC3 inhibitors: AlphaScreen artifacts | Dual-tagged His-ARNT PASB-GST AlphaScreen artifact counter-screen | shares compounds with ARNT TACC3 PPI | actives 70% (n = 45) | AC50, µM;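 active means luminescence drop, with half-maximal potency fitted within twice the sample's top valid dose, cut at about 70 µM in these data; inactive means the rest, including signal moving the wrong way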
The depositor's hits bear a star.

What do the screens show for `O=C(CSc1ncccn1)N1CCCCCC1`?
ERAP1 inh: -2; UUG fidelity: -15; AF4-AF9 inh: -3; S100A4 inh HTS: -2

Results for CN(C)C(=O)CSc1cccc2cccnc12 ?
UUG fidelity: -25; ARNT TACC3 PPI: 60*; ARNT Alpha ctr-1: 15µM*

What do the screens show for `CO[C@@H]1CN(C)C(=O)c2cc(NC(=O)NC(C)C)ccc2OC[C@@H](C)N(C)C[C@H]1C`?
ERAP1 inh: 0; UUG fidelity: 3; AF4-AF9 inh: -2; S100A4 inh HTS: -114; E-selectin induc: 0; ARNT TACC3 PPI: 0

Results for O=C(NCC1CCCO1)c1onc(CSc2ccc(F)cc2)c1C(=O)O (stereo not drawn) ?
ERAP1 inh: 6; UUG fidelity: -22; AF4-AF9 inh: -6; S100A4 inh HTS: -1; E-selectin induc: 1; ARNT TACC3 PPI: 24*; ARNT Alpha ctr-1: -4%

How did N#Cc1ccc(CC(=O)c2ccccc2)[nH]c1=O do in these assays?
ERAP1 inh: -1; UUG fidelity: -13; AF4-AF9 inh: -1; S100A4 inh HTS: -3; E-selectin induc: 0; ARNT TACC3 PPI: active; ARNT Alpha ctr-1: -12%

What do the screens show for `COc1ccc(-c2nc(CN3CCC(C(=O)NC4CCCC4)CC3)c(C)o2)cc1OC`?
ERAP1 inh: 0; UUG fidelity: -13; AF4-AF9 inh: -1; S100A4 inh HTS: -2; E-selectin induc: 3; ARNT TACC3 PPI: -1

How did COc1ccc(-c2nc(CN3CCC(C(=O)NC4CCCc5ccccc54)CC3)c(C)o2)cc1OC (stereo not drawn) do in these assays?
ERAP1 inh: 0; AF4-AF9 inh: inconclusive; S100A4 inh HTS: -3; ARNT TACC3 PPI: 56*; ARNT Alpha ctr-1: -10%

What do the screens show for `C[C@H]1CN([C@@H](C)CO)C(=O)c2cc(NC(=O)CCCN(C)C)ccc2O[C@@H]1CN(C)Cc1ccc(Oc2ccccc2)cc1`?
ERAP1 inh: 4; AF4-AF9 inh: 17; S100A4 inh HTS: -3; E-selectin induc: -5; ARNT TACC3 PPI: 17

What do the screens show for `CCC(=O)NC(c1cc(Cl)c2cccnc2c1O)C1CC1` (stereo not drawn)?
ERAP1 inh: -2; UUG fidelity: -24; AF4-AF9 inh: -4; S100A4 inh HTS: 1; E-selectin induc: 0; ARNT TACC3 PPI: 58*; ARNT Alpha ctr-1: 37µM*

How did CCC(=O)NC(c1cc(Cl)c2cccnc2c1O)C(C)C (stereo not drawn) do in these assays?
ERAP1 inh: -2; UUG fidelity: -21; AF4-AF9 inh: 8; S100A4 inh HTS: -3; E-selectin induc: 0; ARNT TACC3 PPI: 54*; ARNT Alpha ctr-1: 69µM*

What do the screens show for `C[C@@H]1CN([C@@H](C)CO)C(=O)Cc2cc(NC(=O)Nc3ccc(C(F)(F)F)cc3)ccc2O[C@@H]1CN(C)S(=O)(=O)c1ccc(F)cc1`?
E-selectin induc: 2

How did Cc1ccc(S(=O)(=O)Nc2ccc3c(c2)C(=O)N([C@@H](C)CO)C[C@@H](C)[C@H](CN(C)C(=O)Nc2ccc4c(c2)OCO4)O3)cc1 do in these assays?
E-selectin induc: 0

Results for COc1ccc(S(=O)(=O)Nc2ccc3c(c2)CC(=O)N([C@@H](C)CO)C[C@@H](C)[C@@H](CN(C)S(=O)(=O)c2ccc(OC)cc2)O3)cc1 ?
ERAP1 inh: 4; UUG fidelity: -2; AF4-AF9 inh: 3; S100A4 inh HTS: 4; E-selectin induc: 0; ARNT TACC3 PPI: 13

How did Cc1ccc(C)c(CSc2ccc3nnc(-c4ccccn4)n3n2)c1 do in these assays?
ERAP1 inh: -4; UUG fidelity: -1; AF4-AF9 inh: 3; S100A4 inh HTS: 5; E-selectin induc: 0; ARNT TACC3 PPI: 55*; ARNT Alpha ctr-1: -11%

What do the screens show for `COc1ccc([Si](C)(C)[C@@H]2[C@@H](CCO)O[C@]3(C(=O)N4c5c(cc(OC)cc53)C(C)=CC4(C)C)[C@H]2C)cc1`?
ERAP1 inh: -2; UUG fidelity: -2; AF4-AF9 inh: 6; S100A4 inh HTS: 7; ARNT TACC3 PPI: 52*; ARNT Alpha ctr-1: 9µM*

How did COc1ccc([Si](C)(C)[C@H]2[C@H](CCO)O[C@@]3(C(=O)N4c5c(cc(OC)cc53)C(C)=CC4(C)C)[C@@H]2C)cc1 do in these assays?
ERAP1 inh: 2; UUG fidelity: -4; AF4-AF9 inh: 8; S100A4 inh HTS: 16; ARNT TACC3 PPI: 42

What do the screens show for `O=C(c1ccco1)[C@@H]1[C@@H]2C(=O)N(c3ccccc3)C(=O)[C@@H]2C2c3ccccc3C=CN21` (stereo partly drawn)?
ARNT TACC3 PPI: 41*; ARNT Alpha ctr-1: -34%

Results for COc1ccc(N2C(=O)[C@@H]3[C@H](C2=O)[C@H]2c4ccccc4C=CN2[C@@H]3C(=O)Nc2ccccc2)cc1 ?
UUG fidelity: -21; ARNT TACC3 PPI: -4

Results for O=C1O[C@H](c2ccccc2)[C@H](c2ccccc2)N2[C@H]1[C@@H](C(=O)N1CCCCCCC1)[C@]1(C(=O)Nc3ccc(C#CC4=CCCCC4)cc31)[C@H]2c1ccccc1OCCO ?
ERAP1 inh: -2; UUG fidelity: -12; AF4-AF9 inh: 1; S100A4 inh HTS: -34; ARNT TACC3 PPI: 22

How did O=C(Nc1nc2ccccc2s1)c1ccc([N+](=O)[O-])o1 do in these assays?
ERAP1 inh: 3; AF4-AF9 inh: -3; S100A4 inh HTS: 11; E-selectin induc: 0; ARNT TACC3 PPI: -21

How did O=C(Nc1nc(-c2ccccn2)cs1)C1COc2ccccc2O1 (stereo not drawn) do in these assays?
ERAP1 inh: 6; UUG fidelity: -68; AF4-AF9 inh: -1; S100A4 inh HTS: -3; E-selectin induc: 0; ARNT TACC3 PPI: 71*; ARNT Alpha ctr-1: 29µM*

How did O=C(Nc1nc(-c2ccccc2)cs1)C1COc2ccccc2O1 (stereo not drawn) do in these assays?
UUG fidelity: 1

How did O=C(COc1ccc([N+](=O)[O-])cc1)Nc1nc(-c2ccccn2)cs1 do in these assays?
ERAP1 inh: 1; UUG fidelity: -26; AF4-AF9 inh: -23; S100A4 inh HTS: 5; E-selectin induc: 1; ARNT TACC3 PPI: 63*; ARNT Alpha ctr-1: 48µM*

What do the screens show for `Cc1ccc(C(=O)Nc2nc(-c3ccccn3)cs2)o1`?
ERAP1 inh: -3; AF4-AF9 inh: -3; S100A4 inh HTS: -3; ARNT TACC3 PPI: 60*; ARNT Alpha ctr-1: 23µM*; ARNT Alpha ctr-2: 9.9*

Compounds listed so far containing fluorine, in the order listed:
Results for O=C(NCC1CCCO1)c1onc(CSc2ccc(F)cc2)c1C(=O)O (stereo not drawn) ?
ERAP1 inh: 6; UUG fidelity: -22; AF4-AF9 inh: -6; S100A4 inh HTS: -1; E-selectin induc: 1; ARNT TACC3 PPI: 24*; ARNT Alpha ctr-1: -4%

What do the screens show for `C[C@@H]1CN([C@@H](C)CO)C(=O)Cc2cc(NC(=O)Nc3ccc(C(F)(F)F)cc3)ccc2O[C@@H]1CN(C)S(=O)(=O)c1ccc(F)cc1`?
E-selectin induc: 2

Screens (PubChem)
